# Test results from patent US20090142411A1, “Composition and Device Comprising an Inorganic Component (Metal Compound) for Coagulation of Protein-Containing Fluids” (SMITH & NEPHEW, PLC, priority 2005, published 2009).
# By UniProt entry, the sequences of proteins in these tests, tags left out. Residues count along the entry.
# UniProt P02769, 25-607: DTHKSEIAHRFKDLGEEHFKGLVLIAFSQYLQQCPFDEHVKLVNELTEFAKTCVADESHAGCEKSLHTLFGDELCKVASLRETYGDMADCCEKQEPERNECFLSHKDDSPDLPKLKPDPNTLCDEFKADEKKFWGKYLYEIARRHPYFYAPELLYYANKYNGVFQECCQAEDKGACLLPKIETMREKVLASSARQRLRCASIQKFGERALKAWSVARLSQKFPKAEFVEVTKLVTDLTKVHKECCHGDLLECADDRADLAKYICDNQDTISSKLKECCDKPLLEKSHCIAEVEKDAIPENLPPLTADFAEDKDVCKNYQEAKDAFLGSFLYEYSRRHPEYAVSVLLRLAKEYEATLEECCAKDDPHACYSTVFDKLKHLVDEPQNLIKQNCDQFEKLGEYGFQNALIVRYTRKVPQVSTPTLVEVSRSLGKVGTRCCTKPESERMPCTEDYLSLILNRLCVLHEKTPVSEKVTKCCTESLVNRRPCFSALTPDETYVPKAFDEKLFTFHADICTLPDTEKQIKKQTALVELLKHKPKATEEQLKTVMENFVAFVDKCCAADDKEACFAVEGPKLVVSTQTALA
# Target: bovine serum albumin (Bos taurus, UniProt P02769)
# Assay: coagulation of bovine serum albumin solution
# Method: The oxide powder was allowed to settle to the bottom of the vessel (0.5 ml capacity Eppendorf tube) and was left undisturbed for 2 hours.
# (§1) The vessel was left undisturbed for 30 minutes.
# as §1, §1, §1, §1
# The vessel was left undisturbed for 24 h.
substance,measurement,setting,value
gold (III) chloride,coagulation,"1 μl aliquot of 350 mg/ml solution in PBS pH 7.4, 100 μl BSA 40 mg/ml, 30 minutes","a coagulated, opaque mass of several millimetres thickness was formed"
same,coagulation,"2 μl aliquot of 350 mg/ml solution in PBS pH 7.4, 100 μl BSA 40 mg/ml, 30 minutes","a coagulated, opaque mass of several millimetres thickness was formed"
same,coagulation,"3 μl aliquot of 350 mg/ml solution in PBS pH 7.4, 100 μl BSA 40 mg/ml, 30 minutes","a coagulated, opaque mass of several millimetres thickness was formed"
same,coagulation,"4 μl aliquot of 350 mg/ml solution in PBS pH 7.4, 100 μl BSA 40 mg/ml, 30 minutes","a coagulated, opaque mass of several millimetres thickness was formed"
same,coagulation,"5 μl aliquot of 350 mg/ml solution in PBS pH 7.4, 100 μl BSA 40 mg/ml, 30 minutes","a coagulated, opaque mass of several millimetres thickness was formed"
same,coagulation,"5 μl aliquot of 350 mg/ml solution, BSA solution (100 gi, 40 mg/ml), 1.0 ml syringe, 24 h",the fluid coagulated
same,depth of coagulated mass versus quantity of gold present,"Examples 4-8, 1-5 μl aliquots, digital image",a comparable linear increase in the depth of coagulated mass
